{"source": "ChEMBL document CHEMBL1135532", "about": "“Synthesis of potent leukotriene A(4) hydrolase inhibitors. Identification of 3-[methyl[3-[4-(phenylmethyl)phenoxy]propyl]amino]propanoic acid” (J Med Chem, 2002)", "key": {"[1]": {"molecular_target": "T1, Leukotriene A-4 hydrolase (Homo sapiens, UniProt P09960)", "T1 sequence (P09960 whole entry)": "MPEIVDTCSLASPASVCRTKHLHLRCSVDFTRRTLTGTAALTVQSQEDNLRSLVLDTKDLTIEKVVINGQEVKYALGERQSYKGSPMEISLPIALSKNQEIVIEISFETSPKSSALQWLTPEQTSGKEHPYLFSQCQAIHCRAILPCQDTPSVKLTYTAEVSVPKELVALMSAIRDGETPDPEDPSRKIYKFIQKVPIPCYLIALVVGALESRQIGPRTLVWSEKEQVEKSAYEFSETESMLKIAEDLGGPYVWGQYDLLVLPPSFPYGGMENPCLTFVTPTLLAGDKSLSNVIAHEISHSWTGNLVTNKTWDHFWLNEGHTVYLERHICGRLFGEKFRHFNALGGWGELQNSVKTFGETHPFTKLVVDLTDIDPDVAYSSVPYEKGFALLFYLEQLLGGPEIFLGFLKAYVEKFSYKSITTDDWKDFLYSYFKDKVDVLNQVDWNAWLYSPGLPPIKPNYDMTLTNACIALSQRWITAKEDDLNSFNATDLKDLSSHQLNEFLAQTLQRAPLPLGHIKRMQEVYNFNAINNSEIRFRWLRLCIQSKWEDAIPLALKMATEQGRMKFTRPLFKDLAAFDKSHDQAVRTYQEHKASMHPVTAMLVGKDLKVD", "test": "Inhibition of human whole blood LTB-4 production (Leukotriene B-4).", "assay_type": "functional"}, "[2]": {"molecular_target": "T1, Leukotriene A-4 hydrolase", "test": "Inhibition of human leukotriene A4 hydrolase (LTA-4)."}}}
{"compound": "CN(CCCOc1ccc(Cc2ccccc2)cc1)CCC(=O)O.Cl", "values": [{"measurement": "IC50", "setting": "[1]", "result": 49, "unit": "nM"}, {"measurement": "IC50", "setting": "[2]", "result": 2.5, "unit": "nM"}]}
